Source: patent US7329782B2, “Compounds for the treatment of metabolic disorders” (Wellstat Therapeutics Corporation, priority 2001, dated 2008)
Like-named read-outs stand apart in the source and are kept apart here.

Tested on: ob/ob mice
Conditions: daily oral, 4 weeks

SMILES: CN(CCOc1ccc(CC2SC(=O)NC2=O)cc1)c1ccccn1 (stereo not drawn) [Rosiglitazone, rosiglitazone]
- ALT ± SEM (serum enzyme indicator of liver injury) (1 mg/kg/day): 668.8 ± 42.9 U/L
- AST ± SEM (serum enzyme indicator of liver injury) (1 mg/kg/day): 798.0 ± 73.8 U/L
- SDH ± SEM (serum enzyme indicator of liver injury) (1 mg/kg/day): 644.5 ± 51.6 U/L
- ALT ± SEM (serum enzyme indicator of liver injury) (3 mg/kg/day): 716.6 ± 56.6 U/L
- AST ± SEM (serum enzyme indicator of liver injury) (3 mg/kg/day): 853.8 ± 43.8 U/L
- SDH ± SEM (serum enzyme indicator of liver injury) (3 mg/kg/day): 615.4 ± 38.6 U/L
- ALT ± SEM (serum enzyme indicator of liver injury) (10 mg/kg/day): 713.6 ± 80.5 U/L
- AST ± SEM (serum enzyme indicator of liver injury) (10 mg/kg/day): 1024.0 ± 88.7 U/L
- SDH ± SEM (serum enzyme indicator of liver injury) (10 mg/kg/day): 782.0 ± 70.6 U/L
- ALT ± SEM (serum enzyme indicator of liver injury) (30 mg/kg/day): 646.0 ± 56.1 U/L
- AST ± SEM (serum enzyme indicator of liver injury) (30 mg/kg/day): 901.2 ± 49.3 U/L
- SDH ± SEM (serum enzyme indicator of liver injury) (30 mg/kg/day): 603.0 ± 27.3 U/L
